According to patent publication US10308916B2, “Omega-transaminase mutants with activity improvements toward ketones and methods for producing optically pure amines” (Industry-Academic Cooperation Foundation, Yonsei University, priority 2015, dated 2019):

Experiments:
OATA W58L [1] = target: T1, OATA W58L (Brucella anthropi, UniProt A6WVC6, W58L); conditions: second value of cell
OATA W58L [2] = target: T1, OATA W58L; conditions: isopropylamine as amino donor

Row | Structure (SMILES) | kcat, OATAW58L (OATA W58L [1]) | Reaction rate OATAWSBL (OATA W58L [2])
1 | CC(=O)C(=O)O [pyruvate, pyruvic acid] | 2600, 19000 ×10^−3 s^−1 | 
2 | CC(C)N [Isopropylamine] | 9700, 9300 ×10^−3 s^−1 | 
3 | C[C@H](N)c1ccccc1 [(S)-α-methylbenzylamine] | 24000, 20000 ×10^−3 s^−1 | 
4 | O=C1CCCc2ccccc21 |  | 2.1 ± 0.1 μm/h
5 | CC(=O)c1ccccc1 [Ketone 1a, acetophenone] | 9.7, 540 ×10^−3 s^−1 | 
6 | O=C1CCc2ccccc21 |  | 7.6 ± 0.1 μm/h
